In the library only some 3.7% were active in any assay of this set; here they are far more common.
A549 viability – kills or reduces viability of A549 cells in Nrf2 counter-screen; A549 ARE-Fluc cells, CellTiter-Fluor viability, 18-24 h; Potency, µM (titrated, usually from 46 µM), for inactives: top-dose activity change, negative = cytotoxicity, actives largely listed as inhibitors; hit rate 0.16% among 390,000; AID 504648; further: potency means the concentration at half of the fitted maximal effect; on the % scale 0 is the no-effect control and ±100 the full control effect
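A549 ARE_Fluc cells in 5% FBS OPTI-MEM were exposed to compounds in concentration-response for 18-24 h at 37 deg C. Viability was read by CellTiter-Fluor fluorescence (Ex 405/Em 525) after 30 min, before the luciferase read.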
Nrf2 ARE act – activates Nrf2 signaling | Potency, µM (top dose mostly 46.1 µM), for the others: at the highest dose activation, usual class: activators | AREc32 ARE-luciferase reporter (MCF7-derived line), luminescence, 24 h | hit rate 0.31% among 410,000; further: potency means the concentration at half of the fitted maximal effect; % of control where 0% means no effect; nearly all actives have a fitted effect of over 65% in size
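AREc32_Fluc, 1000 cells/well, OPTI-MEM + 5% FBS, o/n 37 deg C 5% CO2; 23 nL cpd by pin tool, 24 hr; Steady-Glo 30 min RT, luminescence.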
ClpP mod – qHTS Assay for Activators of ClpP. hit rate 1.9% among 340,000. purified B. subtilis ClpP, FRET peptide cleavage, 20 min. Potency, µM (series often up to 57.5 µM), without a hit: at the highest dose activity change, negative = active. ATP-dependent Clp protease proteolytic subunit (Bacillus subtilis (strain 168)), P80244; active means well fitted falling curve with a large enough effect; inconclusive means small, poorly fitted or top-dose-only effect; inactive means no such curve, though single readings can be large or run the other way; further: potency means the concentration at half of the fitted maximal effect; the source files actives as falling curves though it sought activators and does not explain the sign; nearly all actives have a fitted effect of over 65% in size
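ClpP 10 microg/mL final, pH 8 Tris/KCl buffer with BSA, glycerol, Tween-20; compound pinned in; FRET-FV substrate; RT 20 min; Ex320/Em430; ΔFRET vs ADEP 5.8 microM, DMSO, no enzyme.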
Nrf2 inh – Nrf2 pathway inhibition | A549 ARE-Fluc reporter, luciferase luminescence, 18-24 h | Potency, µM (highest dose often 46 µM), for inactives: at the highest dose activity change, negative = inhibition, usual class: inhibitors | hit rate 2.1% among 360,000 | AID 504444; further: potency means the concentration at half of the fitted maximal effect; on the % scale 0 is the no-effect control and ±100 the full control effect; nearly all actives have a fitted effect of over 60% in size
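Cells were seeded and rested 2 h, then exposed to compounds for 18-24 h. CellTiter-Fluor was read first as a viability measure. BugLite was added 15 min before the final luminescent read of ARE-luciferase activity in A549 cells.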
TCR activator – activators of T cell receptors | primary human leukocytes, anti-CD3, IL-2 HTRF, 48 h | Potency, µM (titrated, usually from 9.22 µM), for inactives: top-dose activation of IL-2 secretion, actives largely listed as activators | 330,000 tested, under 10 active; further: % of control where 0% means no effect
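48 hr co-incubation of compounds, a-CD3 beads and primary human leukocytes; IL-2 quantified homogeneously by HTRF with anti-IL-2 K and d2 conjugates.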
miR-21 reporter – raises the signal of a miR-21 reporter | HeLa miR-21 FLuc reporter, luciferase, 48 h | Potency, µM (highest dose often 38.3 µM), inactives show at the highest dose reporter change, positive = more light | 340,000 tested, under 10 active | AID 2288; active = well fitted rising curve with a large enough effect; inconclusive = small, poorly fitted or top-dose-only effect; inactive = no such curve, though single readings can be large or run the other way;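 note: % of control where 0% means no effect; miR-21 action dims this reporter so a rising signal means less miR-21 action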
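Compounds were titrated across several concentrations (up to approximately 40 uM) and incubated 48 hours with HeLa miR-21-FLuc reporter cells (miR-21 target sequence downstream of FLuc, endogenous miR-21). Readout was firefly luciferase luminescence after lytic detection reagent.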
* hit, by the source's call; ? = inconclusive; nt = not tested or not shown; [ ] = another dose, or the depositor's remark. Unless noted, the call rests on the fitted dose curve; in most records, active means well fitted curve in the direction sought with a large enough effect; inconclusive means small, poorly fitted or top-dose-only effect, or another doubt; inactive means no such curve, though single readings can be large; an effect the other way counts as inactive or inconclusive.

By UniProt entry, the sequences of proteins in these tests, tags left out.
ATP-dependent Clp protease proteolytic subunit (Bacillus subtilis (strain 168)), P80244, UniProt P80244, whole entry, looked up: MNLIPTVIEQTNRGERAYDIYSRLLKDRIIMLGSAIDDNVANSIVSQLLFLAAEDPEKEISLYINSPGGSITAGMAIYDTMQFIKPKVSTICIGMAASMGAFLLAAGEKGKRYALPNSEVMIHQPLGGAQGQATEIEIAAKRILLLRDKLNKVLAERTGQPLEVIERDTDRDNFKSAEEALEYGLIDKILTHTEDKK

SMILES	A549 viability	Nrf2 ARE act	ClpP mod	Nrf2 inh	TCR activator	miR-21 reporter
O=c1[nH]c(NCCO)nc2c1C1(CCCCC1)Cc1ccccc1-2	-2%	-1%	32µM*	nt	-2%	3%
CCC1(CC)Cc2ccccc2-c2nc(NCCO)[nH]c(=O)c21	?	0%	6.3µM*	?	3%[46.1 µM]	0%
CCc1nc2c(c(=O)[nH]1)C(CC)(CC)Cc1ccccc1-2	7%	2%	-2%	7%	-12%	-2%
O=C(Nc1ccccc1)c1cc(S(=O)(=O)NCc2ccncc2)ccc1Cl	-4%	0%	-6%	18µM*	8%	15%
COc1ccc(S(=O)(=O)NCc2ccccn2)cc1NC(=O)c1ccc(Cl)cc1	-21%	0%	nt	-13%	-1%	nt
COc1ccc(S(=O)(=O)NCc2ccncc2)cc1NC(=O)c1ccc(Cl)cc1	-3%	2%	nt	4.6µM*	-7%	nt
COc1ccc(S(=O)(=O)NCc2ccncc2)cc1NC(=O)c1ccccc1	-7%	3%	-29%	6.5µM*	-13%	nt
CN(c1ccc(F)cc1)S(=O)(=O)c1ccc(Cl)c(C(=O)Nc2ccncc2)c1	-8%	10%	-3%	18µM*	4%	nt
CN(c1ccc(F)cc1)S(=O)(=O)c1ccc(Cl)c(C(=O)Nc2ccc3c(c2)CCC3)c1	1%	1%	23%	?	0%[46.1 µM]	-1%
O=C(Cn1cc(COc2ccc(Cl)c(Cl)c2)nn1)NS(=O)(=O)c1ccccc1OC(F)(F)F	nt	0%[9.22 µM]	-5%	nt	nt	nt

Of the compounds above, these contain an aryl methoxy group:
SMILES	A549 viability	Nrf2 ARE act	ClpP mod	Nrf2 inh	TCR activator	miR-21 reporter
COc1ccc(S(=O)(=O)NCc2ccccn2)cc1NC(=O)c1ccc(Cl)cc1	-21%	0%	nt	-13%	-1%	nt
COc1ccc(S(=O)(=O)NCc2ccncc2)cc1NC(=O)c1ccc(Cl)cc1	-3%	2%	nt	4.6µM*	-7%	nt
COc1ccc(S(=O)(=O)NCc2ccncc2)cc1NC(=O)c1ccccc1	-7%	3%	-29%	6.5µM*	-13%	nt

(list continues)
SMILES	A549 viability	Nrf2 ARE act	ClpP mod	Nrf2 inh	TCR activator	miR-21 reporter
CC(=O)c1ccc(OCC(O)CN2CCN(S(=O)(=O)c3c(C)cc(C)cc3C)CC2)cc1 (centres undefined)	-3%	0%	20µM*	?	-4%	0%
CC(=O)c1ccc(OCC(O)CN2CCOCC2)cc1 (centres undefined)	-1%	0%	0%	13%	5%	4%
CCOc1ccc(C(N)=O)cc1OC	3%	-1%	28µM*	nt	13%	-2%
Cc1ccc(-c2nnc(NC3CCCCC3)c3ccccc23)cc1S(=O)(=O)N1CCN(C)CC1	?	0%	-1%	23µM*	8%	0%
CCOC(=O)C1=C(C)OC(N)=C(C#N)C1c1cc2cc(C)ccc2nc1N1CCCCC1 (centres undefined)	-15%	13%	28µM*	7%	-5%	-18%
CCOC(=O)CSC1=C(C#N)C(c2ccc(C)s2)CC(=O)N1 (centres undefined)	?	0%	3%	21µM*	-6%	27%
O=C(NC(=S)Nc1ccc(Cl)cn1)c1cccs1	3%	6.3µM*	2%	?	1%	-37%
Cc1ccccc1C(=O)NNC(=S)NC(=O)c1cccs1	?	9%	1%	15µM*	-1%	2%
O=C(NC(=S)Nc1cccnc1)c1cccs1	2%	3%	-8%	?	6%	-30%
CCCOc1ccc(C(=O)NNC(=S)NC(=O)c2cccs2)cc1	-19%	14%	nt	7.3µM*	-1%	29%
O=C(NC1CCN(c2ncccn2)CC1)c1ccccc1Cl	-1%	0%	-18%	?	-11%	-1%
COc1ccccc1NC(=O)Cn1c(=O)n(CC(=O)NCc2ccccc2Cl)c(=O)c2sccc21	-1%	3%	-1%	5%	nt	-7%
NS(=O)(=O)c1ccc(N2N=C(c3ccc(Br)cc3)CC2c2ccc(F)cc2)cc1 (centres undefined)	?	-2%	5%	18µM*	-5%	?
COc1cc(NC(=O)CSc2cc(=O)n(C)c3ccccc23)cc(OC)c1OC	-11%	-1%	-6%	21µM*	nt	0%
CCOCCn1ccc2c(OCC(=O)Nc3ccc(OC)c(OC)c3)cccc2c1=O	-18%	0%	nt	12µM*	-1%	nt
Cn1c(=O)cc(SCC(=O)Nc2cccnc2)c2ccccc21	-3%	0%	?	?	4%	0%
CCOCCn1ccc2c(OCC(=O)Nc3cc(C)cc(C)c3)cccc2c1=O	-3%	0%	-22%	nt	nt	-2%
CCn1c(=O)cc(SCC(=O)Nc2ccc(OC)c(OC)c2)c2ccccc21	-26%	1%	-1%	16µM*	-3%	21%
CC(=O)Nc1ccc(C(=O)OCC(=O)N2CC3(C)CC2CC(C)(C)C3)cc1 (centres undefined)	2%	-1%	nt	13%	-5%[46.1 µM]	nt
CC1(C)CC2CC(C)(CN2C(=O)COC(=O)c2ccc(O)cc2O)C1 (centres undefined)	-2%	0%	-1%	14%	2%	nt
CC1(C)CC2CC(C)(CN2C(=O)COC(=O)c2cc(Cl)cc(Cl)c2N)C1 (centres undefined)	-6%	0%	32µM*	1%	-3%	-3%
CC1(C)CC2CC(C)(CN2C(=O)COC(=O)CNC(=O)c2ccc(Cl)c(Cl)c2)C1 (centres undefined)	0%	0%	25µM*	-12%	0%[46.1 µM]	6%
COc1cccc(CNC(=O)CCc2c(C)nn(-c3ccc(N4CCCC4)nn3)c2C)c1	3%	0%	-2%	-1%	nt	-2%
COc1ccc(OC)c(-c2cc(C3CCN(c4cc(Cl)nc(N)n4)CC3)[nH]n2)c1	-17%	2%	?	?	-1%	?
COc1ccc(-c2cc(C3CCN(c4cc(Cl)nc(N)n4)CC3)[nH]n2)cc1	?	0%	-1%	13µM*	6%	20%
Fc1c(-c2ccc3ncnc(NCc4cccs4)c3c2)ccc2c1OCO2	-2%	nt	nt	?	nt	nt
COc1cc2c(cc1OC)C1(NCC2)C(=O)Nc2ccccc21 (centres undefined)	1%	-1%	-3%	-15%	5%	-2%
COc1cc2c(cc1OC)C1(Nc3c-2c(Cc2ccccc2)nn3-c2ccccc2)C(=O)Nc2ccccc21 (centres undefined)	?	0%	-1%	12µM*	-1%	-14%
COc1ccc(OC)c(NC(=O)Nc2ccc3c(c2)OCO3)c1	10%	1%	-2%	5%	-4%	-24%
COc1ccc2c(c1)C(=O)N1[C@H]3c4cc(Cl)ccc4OC[C@@H]3[C@H](c3ccccc3)[C@]1(C)C(=O)N2	-8%	-2%	18µM*	5%	1%	nt
Cc1cc(-c2ccccc2)c(C#N)c(N)n1	-3%	0%	32µM*	nt	1%	-4%
Cc1ccc2c(n1)sc1c(-c3ccccc3)c(C#N)c(N)nc12	16%	0%	35µM*	13%	0%	-4%
Cc1ccc2c(n1)sc1c(N)ncnc12	-2%	3%	32µM*	6%	2%	-45%

Single records, as listed above:
COc1cccc(CNC(=O)CCc2c(C)nn(-c3ccc(N4CCCC4)nn3)c2C)c1 as listed: A549 viability: 3%; Nrf2 ARE act: 0%; ClpP mod: -2%; Nrf2 inh: -1%; TCR activator: nt; miR-21 reporter: -2%
CC1(C)CC2CC(C)(CN2C(=O)COC(=O)CNC(=O)c2ccc(Cl)c(Cl)c2)C1 (centres undefined) as listed: A549 viability: 0%; Nrf2 ARE act: 0%; ClpP mod: 25µM*; Nrf2 inh: -12%; TCR activator: 0%[46.1 µM]; miR-21 reporter: 6%
